Tests used:
Dvl-3 PDZ [1] = target: T1, Dvl-3 PDZ (Homo sapiens, UniProt Q92997); assay: NMR 1H-15N HSQC chemical shift perturbation; type: binding; conditions: average of the three strongest shifting cross peaks
T1 construct: spectra of Dvl-3 PDZ in the absence and presence of the compound; His-tag (cleaved yes); made in house
T1 sequence (Q92997 243-336): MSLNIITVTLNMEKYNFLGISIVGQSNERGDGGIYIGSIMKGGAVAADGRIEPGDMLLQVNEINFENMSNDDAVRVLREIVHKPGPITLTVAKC
Experimental: The results of virtual screening were checked experimentally by comparing 2D ^1H-^15N HSQC (heteronuclear single quantum correlation) spectra of Dvl-3 PDZ in the absence and presence of the compound to elucidate ligand-induced changes of chemical shifts. Chemical shift perturbation differences ( Δ CSP, representing the average of the three strongest shifting cross peaks according to Eq. 1) were evaluated in cases where the residues responding strongest are inside the area defined by Fig. 1a. […] In most cases, the signals of residues S263, V287, and R320 (Fig. 1a) within the conserved binding site were most strongly perturbed (Fig. S2). With the Δ CSP of 0.12 ppm, the isoleucine-derived compound 1 ((2,3-dihydrobenzo[b][1,4]dioxin-6-yl)sulfonyl)-L-isoleucine containing a sulfonamide moiety was detected initially as one of the best “hits” according to chemical shift changes. The sulfonamide is a well-known moiety in drug discovery (Mathvink et al., 1999; Wu et al., 1999; Sleight et al., 1998; O'Brien et al., 2000; Tellew et al., 2003).
Two-dimensional ^1H-^15N HSQC spectra were used to screen a library of 212 compounds designed by the company Enamine for PDZ domains. 50 µM of ^15N -labelled protein samples was prepared in a 20 mM sodium phosphate buffer, containing 50 mM sodium chloride, 0.02 % ( w/v ) NaN3 , at pH 7.4. Stock solutions of small molecules were prepared in DMSO-d6 at a concentration of 160 mM. A ^1H-^15N HSQC spectrum of Dvl PDZ was acquired at 300 K with 5 % DMSO-d6 in the absence of ligand as reference spectrum. Mixtures of 16 compounds were added to ^15N -labelled Dvl PDZ at eightfold molar excess each. The final concentration of DMSO-d6 in the protein–ligand solutions was 5 %. Spectra were acquired with eight scans and 256 points in the indirect dimension. […] The active compound was obtained through successive deconvolution. Experiments were recorded on a Bruker DRX600 spectrometer equipped with a triple-resonance cryoprobe. The preparation of samples was done automatically by a Tecan Genesis RSP 150 pipetting robot. Spectra were analysed using the programs TOPSPIN and SPARKY (Goddard and Kneller, 2003).
50 µM of ^15N -labelled protein samples was prepared in a 20 mM sodium phosphate buffer containing 50 mM sodium chloride, 0.02 % ( w/v ) NaN3 , at pH 7.4. Stock solutions of small molecules were prepared in DMSO-d6 at a concentration of 160 mM. A ^1H-^15N HSQC spectrum of Dvl PDZ was acquired at 300 K with 5 % DMSO-d6 in the absence of ligand as reference spectrum. Mixtures of 16 compounds were added to ^15N -labelled Dvl PDZ at eightfold molar excess each. The final concentration of DMSO-d6 in the protein–ligand solutions was 5 %. Spectra were acquired with eight scans and 256 points in the indirect dimension.
The active compound was obtained through successive deconvolution. Experiments were recorded on a Bruker DRX600 spectrometer equipped with a triple-resonance cryoprobe. The preparation of samples was done automatically by a Tecan Genesis RSP 150 pipetting robot. Spectra were analysed using the programs TOPSPIN and SPARKY.

The chains behind the UniProt entries cited, without tags or fusion partners. Where a name states a change or a piece, a line headed by the entry shows the natural chain unless it says otherwise.
UniProt O14640: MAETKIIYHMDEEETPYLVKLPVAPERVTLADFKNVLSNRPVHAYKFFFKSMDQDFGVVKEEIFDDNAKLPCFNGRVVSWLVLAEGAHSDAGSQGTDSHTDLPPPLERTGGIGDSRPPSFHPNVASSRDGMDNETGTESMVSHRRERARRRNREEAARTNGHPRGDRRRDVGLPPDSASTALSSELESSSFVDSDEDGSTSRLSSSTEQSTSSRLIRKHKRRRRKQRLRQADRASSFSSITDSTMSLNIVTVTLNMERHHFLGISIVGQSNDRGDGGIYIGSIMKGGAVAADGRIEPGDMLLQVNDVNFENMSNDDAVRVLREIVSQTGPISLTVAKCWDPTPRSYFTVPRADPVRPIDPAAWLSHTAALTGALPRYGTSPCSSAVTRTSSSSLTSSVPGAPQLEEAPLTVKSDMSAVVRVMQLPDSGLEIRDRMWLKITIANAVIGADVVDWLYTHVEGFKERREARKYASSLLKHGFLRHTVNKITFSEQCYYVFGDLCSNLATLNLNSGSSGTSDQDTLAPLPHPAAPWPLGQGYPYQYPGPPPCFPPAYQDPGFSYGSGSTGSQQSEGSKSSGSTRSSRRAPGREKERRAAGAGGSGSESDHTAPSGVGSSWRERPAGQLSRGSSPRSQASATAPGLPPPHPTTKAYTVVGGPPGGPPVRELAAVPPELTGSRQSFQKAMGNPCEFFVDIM

HEK293 cells = assay: MTT cell viability assay; type: cell-based; conditions: 24 h
Experimental: Possible cytotoxic effects of compounds 3, 7, 8, 9, and 10 were evaluated in cell viability assays using HEK293 cells (Fig. S4). These compounds were selected due to different substituents at the R 1 , including halogens. […] Compounds 3 and 10 that contained fluorine or methyl group substituents at R 2 , respectively, were the least toxic, while compound 7, containing bromine, was the most toxic. The results from crystallography, modelling studies, and of the cell proliferation assays led us to further investigate compounds 18–21 that contain a methyl group at the R 1 position and different substituents as R 2 . In this way, we aimed to develop both potent and less-toxic cell-permeable inhibitors. […] Compound 18 contains a pyrazole ring which is considered an important biologically active heterocyclic moiety (Lv et al., 2010). […] Their binding constants almost have the same value despite the different substituents (bromine or chlorine) at the pyrrole rings. […] Instead, a π – π stacking interaction with F259 was observed (Fig. S3i).
HEK293 cells were plated on a 96-well plate and treated with different concentrations of Dvl inhibitors. After 24 h treatment, 20 µL of MTT solution (5 mg mL ^-1 ) was added into each well. After 2 h incubation, cell culture medium was replaced with 50 µL DMSO, and the signal of the purple formazan, produced by living cells, was measured by a plate reader.

Dvl-1 PDZ [2] = target: T2, Dvl-1 PDZ (Homo sapiens, UniProt O14640, C338S/V250I); assay: Binding constant by NMR titration; parameters: Dvl-1 PDZ domain (O14640, residues 245–338); made in house; host or cells: E. coli BL21 (DE3)
T2 sequence (O14640 245-338 V250I/C338S): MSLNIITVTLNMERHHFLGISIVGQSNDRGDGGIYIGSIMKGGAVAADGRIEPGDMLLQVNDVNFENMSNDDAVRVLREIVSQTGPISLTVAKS

Dvl-1 PDZ [3] = target: T2, Dvl-1 PDZ; assay: biochemical
PSD95-1 PDZ = PSD95-1 PDZ (Homo sapiens, UniProt P78352); assay: Selectivity by NMR chemical shift perturbation; conditions: mean of 3 residues
PSD95-2 PDZ = PSD95-2 PDZ (Homo sapiens, UniProt P78352); assay: Selectivity by NMR chemical shift perturbation; conditions: mean of 3 residues
PSD95-3 PDZ = PSD95-3 PDZ (Homo sapiens, UniProt P78352); assay: Selectivity by NMR chemical shift perturbation; conditions: mean of 3 residues
Shank-3 PDZ = target: T3, Shank-3 PDZ (Mus musculus, UniProt Q4ACU6); assay: Selectivity by NMR chemical shift perturbation; conditions: mean of 3 residues
T3 sequence (Q4ACU6 562-669): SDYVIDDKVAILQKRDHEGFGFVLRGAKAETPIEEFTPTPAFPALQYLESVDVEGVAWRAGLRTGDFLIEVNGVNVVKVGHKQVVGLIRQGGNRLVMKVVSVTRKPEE

α-1-syntrophin PDZ = target: T4, α-1-syntrophin PDZ (Mus musculus, UniProt Q61234); assay: Selectivity by NMR chemical shift perturbation; conditions: a-1-Syn; mean of 3 residues
T4 sequence (Q61234 81-164): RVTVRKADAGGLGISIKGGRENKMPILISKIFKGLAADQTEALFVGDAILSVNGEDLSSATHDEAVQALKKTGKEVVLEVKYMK

AF-6 PDZ = target: T5, AF-6 PDZ (Homo sapiens, UniProt P55196); assay: Selectivity by NMR chemical shift perturbation; conditions: mean of 3 residues
T5 sequence (P55196 985-1086 isoform P55196-2): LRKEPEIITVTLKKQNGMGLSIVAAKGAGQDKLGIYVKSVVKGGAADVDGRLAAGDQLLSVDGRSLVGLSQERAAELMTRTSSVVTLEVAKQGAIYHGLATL

Dvl-1 PDZ [4] = target: T2, Dvl-1 PDZ; assay: NMR 1H-15N HSQC chemical shift perturbation; type: binding; parameters: Dvl-1 PDZ domain (O14640, residues 245–338); made in house; host or cells: E. coli BL21 (DE3); conditions: mean of 3 residues
Dvl-3 PDZ [5] = target: T1, Dvl-3 PDZ; assay: Binding constant by isothermal titration calorimetry (ITC); conditions: one-site binding model, 25 °C, read-out: K D Dvl-3 PDZ
From the text: Titration of ligand into buffer yielded negligible heat.

[6] = by NMR, mean ± SD of at least six residues, read-out: K D Dvl-1 PDZ

Compound: O=C(O)c1cc(F)ccc1NS(=O)(=O)c1ccc2c(c1)CCC2 [Compound 3]
- Chemical shift perturbation ΔCSP (Dvl-3 PDZ [1]): > 0.2 ppm
- relative toxicity (in words) (HEK293 cells): least toxic
- Kd (Dvl-1 PDZ [2]; [6]): 113 ± 25.9 µM

Compound: Cc1ccc(S(=O)(=O)Nc2ccc(F)cc2C(=O)O)cc1C [Compound 4]
- Chemical shift perturbation ΔCSP (Dvl-3 PDZ [1]): > 0.2 ppm
- Kd (Dvl-1 PDZ [2]): 114 ± 9.8 µM

Compound: O=C(O)c1cc(Br)ccc1NS(=O)(=O)c1ccc2c(c1)CCCC2 [Compound 7]
- relative toxicity (in words) (HEK293 cells): most toxic
- Kd (Dvl-1 PDZ [2]; [6]): 18.2 ± 2.4 µM

Compound: O=C(O)c1cc(C(F)(F)F)ccc1NS(=O)(=O)c1ccc2c(c1)CCCC2 [Compound 8, 2-(5,6,7,8-Tetrahydronaphthalene-2-sulfonamido)-5-(trifluoromethyl) benzoic acid]
- Kd (Dvl-1 PDZ [3]): 24.5 ± 1.5 µM

Compound: O=C(O)c1cc(Cl)ccc1NS(=O)(=O)c1ccc2c(c1)CCCC2 [Compound 9]
- Kd (Dvl-1 PDZ [2]; [6]): 45.6 ± 4.5 µM

Compound: Cc1ccc(NS(=O)(=O)c2ccc3c(c2)CCCC3)c(C(=O)O)c1 [Compound 10]
- relative toxicity (in words) (HEK293 cells): least toxic
- Kd (Dvl-1 PDZ [2]; [6]): 60.5 ± 5.3 µM

Compound: O=C(O)c1cc(Br)ccc1NS(=O)(=O)c1ccc2ccccc2c1 [Compound 11, 5-Bromo-2-(naphthalene-2-sulfonamido) benzoic acid]
- Kd (Dvl-1 PDZ [3]): 120 µM

Compound: O=C(O)c1cc(Br)ccc1NS(=O)(=O)c1ccc(COc2ccccc2)cc1 [Compound 13, 5-Bromo-2-(4-(phenoxymethyl)phenylsulfonamido)benzoic acid]
- Kd (Dvl-1 PDZ [3]): 213 µM

Compound: Cc1ccc(NS(=O)(=O)c2ccc(CNC(=O)c3n[nH]c4ccccc34)c(Cl)c2)c(C(=O)O)c1 [Compound 18]
- Chemical shift perturbation ΔCSP (Dvl-3 PDZ [1]): 0.30 ppm
- Kd (Dvl-1 PDZ [3]): 2.4 ± 0.2 µM
- Chemical shift perturbation ΔCSP (PSD95-1 PDZ): 0.05 ppm
- Chemical shift perturbation ΔCSP (PSD95-2 PDZ): 0.1 ppm
- Chemical shift perturbation ΔCSP (PSD95-3 PDZ): 0.05 ppm
- Chemical shift perturbation ΔCSP (Shank-3 PDZ): 0.01 ppm
- Chemical shift perturbation ΔCSP (α-1-syntrophin PDZ): 0.08 ppm
- Chemical shift perturbation ΔCSP (AF-6 PDZ): 0.01 ppm
- Chemical shift perturbation ΔCSP (Dvl-1 PDZ [4]): 0.32 ppm

Compound: Cc1ccc(NS(=O)(=O)c2ccc(CNC(=O)c3c[nH]c4ccccc34)c(Cl)c2)c(C(=O)O)c1 [Compound 19]
- Kd (Dvl-1 PDZ [3]): 8 ± 0.5 µM

Compound: Cc1ccc(NS(=O)(=O)c2ccc(CNC(=O)c3cc(Br)c[nH]3)c(Cl)c2)c(C(=O)O)c1 [Compound 20]
- Chemical shift perturbation ΔCSP (Dvl-3 PDZ [1]): 0.36 ppm
- Kd (Dvl-1 PDZ [3]): 4.7 ± 0.3 µM
- Chemical shift perturbation ΔCSP (PSD95-1 PDZ): 0.06 ppm
- Chemical shift perturbation ΔCSP (PSD95-2 PDZ): 0.09 ppm
- Chemical shift perturbation ΔCSP (PSD95-3 PDZ): 0.06 ppm
- Chemical shift perturbation ΔCSP (Shank-3 PDZ): 0.05 ppm
- Chemical shift perturbation ΔCSP (α-1-syntrophin PDZ): 0.07 ppm
- Chemical shift perturbation ΔCSP (AF-6 PDZ): 0.01 ppm
- Chemical shift perturbation ΔCSP (Dvl-1 PDZ [4]): 0.3 ppm

Compound: Cc1ccc(NS(=O)(=O)c2ccc(CNC(=O)c3cc(Cl)c[nH]3)c(Cl)c2)c(C(=O)O)c1 [Compound 21]
- Chemical shift perturbation ΔCSP (Dvl-3 PDZ [1]): 0.36 ppm
- Kd (Dvl-1 PDZ [3]): 4.7 ± 0.2 µM
- Chemical shift perturbation ΔCSP (PSD95-1 PDZ): 0.07 ppm
- Chemical shift perturbation ΔCSP (PSD95-2 PDZ): 0.09 ppm
- Chemical shift perturbation ΔCSP (PSD95-3 PDZ): 0.1 ppm
- Chemical shift perturbation ΔCSP (Shank-3 PDZ): 0.05 ppm
- Chemical shift perturbation ΔCSP (α-1-syntrophin PDZ): 0.08 ppm
- Chemical shift perturbation ΔCSP (AF-6 PDZ): 0.01 ppm
- Chemical shift perturbation ΔCSP (Dvl-1 PDZ [4]): 0.3 ppm

Compound: CC1=C(CC(=O)O)c2cc(F)ccc2/C1=C\c1ccc([S+](C)[O-])cc1 (stereo not drawn) [Sulindac, reference compound]
- Kd (Dvl-3 PDZ [5]): 8.3 ± 2.5 µM
